DT40 TDP1 no CPT: qHTS for Inhibitors of human tyrosyl-DNA phosphodiesterase 1 (TDP1): qHTS in cells in absence of CPT; 420,000 compounds, 15% hits; DT40 Tdp1-/- hTDP1 cells, no CPT, ATP luminescence, 48 h; Potency, µM (series often up to 46.2 µM), for the others: top-dose activity change, negative = growth inhibition, most hits filed as inhibitors; also: potency is read from the fitted curve at half-maximal effect; % is scaled to controls: 0 for no effect and ±100 for the full control effect; nearly all actives have a fitted effect of over 55% in size
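Chicken DT40 Tdp1-/- cells stably complemented with human TDP1 were seeded at 400 cells/well with DMSO in place of 20 nM camptothecin. After compound pinning, cells grew at least 48 hr at 37 °C; viability read by CellTiter-Glo luminescence.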
uPA generation: inhibitors of cell surface uPA generation. cell surface uPA generation assay, qHTS. Potency, µM (highest dose often 38.3 µM), for the others: top-dose activity change, negative = inhibition, actives largely listed as inhibitors. 330,000 compounds, 0.31% hits; active = well fitted inhibition curve with a large enough effect; inconclusive = small, poorly fitted or top-dose-only effect; inactive = no such curve, though single readings can be large or run the other way; tested in mouse RAW 264.7 cells; also: potency is read from the fitted curve at half-maximal effect; % is scaled to controls: 0 for no effect and ±100 for the full control effect; nearly all actives have a fitted effect of over 55% in size
miR-21 reporter: raises the signal of a miR-21 reporter; HeLa miR-21 FLuc reporter, luciferase, 48 h; Potency, µM (top dose mostly 38.3 µM), for inactives: at the highest dose reporter change, positive = more light; AID 2288; 340,000 tested, under 10 active; active = well fitted rising curve with a large enough effect; inconclusive = small, poorly fitted or top-dose-only effect; inactive = no such curve, though single readings can be large or run the other way;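 note: % of control where 0% means no effect; miR-21 action dims this reporter so a rising signal means less miR-21 action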
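Compounds were titrated across several concentrations (up to approximately 40 uM) and incubated 48 hours with HeLa miR-21-FLuc reporter cells (miR-21 target sequence downstream of FLuc, endogenous miR-21). Readout was firefly luciferase luminescence after lytic detection reagent.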
TDP1 inh: blocks human tyrosyl-DNA phosphodiesterase 1; Q9NUW8; recombinant TDP1, AlphaScreen DNA substrate cleavage; Potency, µM (top dose mostly 130 µM), for the others: at the highest dose activity change, negative = inhibition, hits mostly inhibitors; 350,000 compounds, 0.28% hits; AID 485290; also: potency is read from the fitted curve at half-maximal effect; % is scaled to controls: 0 for no effect and ±100 for the full control effect; nearly all actives have a fitted effect of over 40% in size
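Here, a 5' biotin and 3' phosphotyrosine-FITC DNA oligonucleotide reports Tdp1 activity: intact substrate bridges AlphaScreen beads, while cleavage leaves a 3' phosphate and drops signal. All incubations at room temperature.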
DT40 TDP1 CPT: growth inhibition of DT40 Tdp1-/-;hTDP1 cells with camptothecin (screen for TDP1 inhibitors) | chicken DT40 Tdp1-/-;hTDP1 cells + 20 nM CPT, ATP luminescence, 48 h | Potency, µM (series often up to 46.2 µM), for the others: at the top dose activity change, negative = growth inhibition, actives largely listed as inhibitors | 420,000 compounds, 12% hits | AID 686979; also: potency is read from the fitted curve at half-maximal effect; % is scaled to controls: 0 for no effect and ±100 for the full control effect; nearly all actives have a fitted effect of over 55% in size
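Cell growth measured by CellTiter-Glo luminescence after a minimum 48 h, 37 C compound exposure with 20 nM CPT in Tdp1-knockout DT40 cells stably expressing hTDP1, seeded 400/well; qHTS titration format.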
Numbers without * were called inactive; ! = not confirmed by another sample; [ ] = dose if it differs, or a comment. Rows were chosen to be rich in hits. Some 16% of all compounds tested hit in one or more screens of this group. Unless noted, calls follow the shape of the dose curve; as a rule, active = well fitted curve in the direction sought with a large enough effect; inconclusive = small, poorly fitted or top-dose-only effect, or another doubt; inactive = no such curve, though single readings can be large; an effect the other way counts as inactive or inconclusive.

O=S(=O)(NCCC1=CCCCC1)c1cccc(S(=O)(=O)N2CCOCC2)c1 was read as DT40 TDP1 no CPT 5.8µM*, uPA generation 5%, miR-21 reporter 5%, TDP1 inh -3% and DT40 TDP1 CPT 5.2µM*.
Screening O=S(=O)(c1ccc(Cl)c(S(=O)(=O)N2CCCC2)c1)N1CCCC1 returned DT40 TDP1 no CPT 0%, uPA generation 2%, miR-21 reporter 0%, TDP1 inh -3% and DT40 TDP1 CPT 1%.
`COc1ccc(OCC(=O)Nc2nnc(C)s2)cc1` gave DT40 TDP1 no CPT -1%, uPA generation 4%, miR-21 reporter -11%, TDP1 inh 7% and DT40 TDP1 CPT -3%.
`CCOc1ccc(CCNC(=O)c2ccc(-n3c(C)cc4c3CCC(C)C4)cc2)cc1OCC` (stereo unspecified) gave DT40 TDP1 no CPT 15µM*, miR-21 reporter 28%, TDP1 inh 5% and DT40 TDP1 CPT 15µM*.
Screening COCCCNC(=O)COc1ccc(Br)cc1Cl returned DT40 TDP1 no CPT -2%, uPA generation 2%, miR-21 reporter -64%, TDP1 inh 2% and DT40 TDP1 CPT -5%.
`CCC(C)NCCCCOc1ccc(Cl)cc1C` (stereo unspecified) gave DT40 TDP1 no CPT 21µM*, uPA generation 7%, miR-21 reporter 1%, TDP1 inh 6% and DT40 TDP1 CPT inconclusive.
Screening C=CCc1cc(Cl)ccc1OCCCNCCO returned DT40 TDP1 no CPT 16µM*, uPA generation -16%, miR-21 reporter -16%, TDP1 inh -6% and DT40 TDP1 CPT inconclusive.
Screening CC(O)CNCCCOc1ccc(Cl)cc1C(C)(C)C (stereo unspecified) returned DT40 TDP1 no CPT 13µM*, uPA generation 8%, miR-21 reporter 19%, TDP1 inh 0% and DT40 TDP1 CPT 13µM*.
`CC(C)NCCCCOc1ccc(Br)cc1Cl` gave DT40 TDP1 no CPT 18µM*, uPA generation inconclusive, miR-21 reporter -27%, TDP1 inh 6% and DT40 TDP1 CPT 23µM*.
`Cc1cccc(NC(=O)CN2CCN(C(=O)c3cnn(Cc4ccccc4)c3)CC2)c1C` gave DT40 TDP1 no CPT -12%, uPA generation -6%, TDP1 inh 1%[56.1 µM] and DT40 TDP1 CPT -7%.
COc1ccc(NC(=O)COC(=O)CNS(=O)(=O)c2ccccc2)cc1OC was read as DT40 TDP1 no CPT -20%, uPA generation 2%, miR-21 reporter -1%, TDP1 inh 0% and DT40 TDP1 CPT 4%.
`CC(C)NCCCOc1ccc(Cl)cc1Br` gave DT40 TDP1 no CPT inconclusive, uPA generation 9%, miR-21 reporter -13%, TDP1 inh -8% and DT40 TDP1 CPT 18µM*.
Screening CCCCNCCCOc1cc(Cl)ccc1Cl returned DT40 TDP1 no CPT inconclusive, uPA generation -6%, miR-21 reporter -4%, TDP1 inh 1% and DT40 TDP1 CPT inconclusive.
For COCCCNCCCOc1ccc(Cl)cc1Br the results were DT40 TDP1 no CPT inconclusive, uPA generation 2%, miR-21 reporter -15%, TDP1 inh -2% and DT40 TDP1 CPT 26µM*.
CCCCNCCOCCOc1ccc(Cl)cc1Br was read as DT40 TDP1 no CPT 33µM*, uPA generation 8%, miR-21 reporter -4%, TDP1 inh -7% and DT40 TDP1 CPT 21µM*.
`O=C(COC(=O)Cc1ccccc1F)NCc1ccc(Cl)cc1` gave DT40 TDP1 no CPT -7%, uPA generation -3%, TDP1 inh -3% and DT40 TDP1 CPT -12%.
`COc1cccc(-c2cnc3c(NC(C)=O)cc(-c4ccc(C(=O)NC5CC5)cc4)cn23)c1` gave DT40 TDP1 no CPT 13µM* and DT40 TDP1 CPT inconclusive.
`COc1ccc(-c2cnc3c(NC(C)=O)cc(-c4ccc(C(=O)NC5CC5)cc4)cn23)cc1OC` gave DT40 TDP1 no CPT 23µM* and DT40 TDP1 CPT 23µM*.
Screening O=C(O)C[CH2][Ge](=[O])[O][Ge](=[O])[CH2]CC(=O)O returned TDP1 inh 6%.
Screening O=S(=O)(c1ccccc1F)N1CCC(Oc2ccc(-n3cnnn3)cc2)CC1 returned DT40 TDP1 no CPT 23µM*, uPA generation inconclusive, miR-21 reporter 17%, TDP1 inh 4% and DT40 TDP1 CPT inconclusive.
CC(C)(C)c1ccc(S(=O)(=O)N2CCC(Oc3ccc(-n4cnnn4)cc3)CC2)cc1 was read as DT40 TDP1 no CPT 10µM*, miR-21 reporter -3%, TDP1 inh 5% and DT40 TDP1 CPT inconclusive.
`COC(=O)/C=C1\SC(N2CCOCC2)=C(c2ccc(OC)cc2)C1=O` gave DT40 TDP1 no CPT 1%, uPA generation -24%, miR-21 reporter 6%, TDP1 inh -1% and DT40 TDP1 CPT -28%.
Cc1cccc2cc3c(NC(=O)C(C)C)nn(C)c3nc12 was read as DT40 TDP1 no CPT -29%, uPA generation 7%, miR-21 reporter 6%, TDP1 inh 0% and DT40 TDP1 CPT -5%.
For Cc1ccc(F)c(Oc2cc(NN3CCCCC3)c([N+](=O)[O-])cc2[N+](=O)[O-])c1 the results were DT40 TDP1 no CPT inconclusive, uPA generation -5%, miR-21 reporter -2% and DT40 TDP1 CPT inconclusive.

Random excerpt: four compounds from above
CC(C)(C)c1ccc(S(=O)(=O)N2CCC(Oc3ccc(-n4cnnn4)cc3)CC2)cc1 was read as DT40 TDP1 no CPT 10µM*, miR-21 reporter -3%, TDP1 inh 5% and DT40 TDP1 CPT inconclusive.
`O=C(COC(=O)Cc1ccccc1F)NCc1ccc(Cl)cc1` gave DT40 TDP1 no CPT -7%, uPA generation -3%, TDP1 inh -3% and DT40 TDP1 CPT -12%.
Screening O=S(=O)(c1ccccc1F)N1CCC(Oc2ccc(-n3cnnn3)cc2)CC1 returned DT40 TDP1 no CPT 23µM*, uPA generation inconclusive, miR-21 reporter 17%, TDP1 inh 4% and DT40 TDP1 CPT inconclusive.
`COc1cccc(-c2cnc3c(NC(C)=O)cc(-c4ccc(C(=O)NC5CC5)cc4)cn23)c1` gave DT40 TDP1 no CPT 13µM* and DT40 TDP1 CPT inconclusive.

Following part.
`Cc1ccc(C2CC(c3cccc(C)c3)n3ncnc3N2)cc1` (stereo unspecified) gave DT40 TDP1 no CPT inconclusive, uPA generation 1%, miR-21 reporter -5%, TDP1 inh 5% and DT40 TDP1 CPT 15µM*.
`COc1cccc(C2CC(c3ccccc3)Nc3ncnn32)c1` (stereo unspecified) gave DT40 TDP1 no CPT -27%, miR-21 reporter -7%, TDP1 inh -9% and DT40 TDP1 CPT -6%.
For CCOc1ccc(C2CC(c3ccc(F)cc3)n3ncnc3N2)cc1 (stereo unspecified) the results were DT40 TDP1 no CPT 21µM*, uPA generation 19%, miR-21 reporter -7%, TDP1 inh 1% and DT40 TDP1 CPT inconclusive.
CCCOc1ccc(N)cc1N was read as DT40 TDP1 no CPT 4.1µM*, uPA generation -15%, miR-21 reporter 2%, TDP1 inh 7% and DT40 TDP1 CPT 5.2µM*.
`CCCOc1cc(N)ccc1C(=O)OCCN(CC)CC` gave DT40 TDP1 no CPT inconclusive, uPA generation 25%, TDP1 inh 2%[56.1 µM] and DT40 TDP1 CPT 0.13µM*!.
CC(=O)c1c(NCCc2ccccc2)nc(=S)n(-c2ccccc2)c1C was read as DT40 TDP1 no CPT 18µM*, uPA generation inconclusive, miR-21 reporter -10%, TDP1 inh 1% and DT40 TDP1 CPT 21µM*.
`CCn1c(C)c(C(C)=O)c(NCc2ccccc2)nc1=S` gave DT40 TDP1 no CPT -4%, uPA generation -4%, miR-21 reporter -7%, TDP1 inh 4% and DT40 TDP1 CPT -12%.
